# Measured affinities in a library of Ab-14 heavy chain variants

Source: Engelhart et al. 2022 (doi:10.1038/s41597-022-01779-4), MIT Lincoln Laboratory and A-Alpha Bio; data file from the FLAb repository.

The target is the same throughout: PDVDLGDISGINAS, from the HR2 region of SARS-CoV-2 spike.

The variants keep the light chain, the linker and the frameworks of Ab-14 (scFv order VH, a (GGGGS)3 linker, VL).
VH: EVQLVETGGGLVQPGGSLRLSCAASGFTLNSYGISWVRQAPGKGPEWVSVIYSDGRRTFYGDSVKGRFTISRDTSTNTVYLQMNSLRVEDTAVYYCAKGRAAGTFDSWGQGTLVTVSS
VL: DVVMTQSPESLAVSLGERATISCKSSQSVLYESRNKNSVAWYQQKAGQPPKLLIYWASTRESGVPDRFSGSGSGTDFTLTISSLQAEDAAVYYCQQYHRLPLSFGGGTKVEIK

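Library AAYL49 holds single substitutions and randomly drawn double and triple substitutions in the CDRs. In AlphaSeq, yeast of one mating type display the scFv and yeast of the other type display the target. After mating in shaken culture at 30 °C for 16 h, diploids were selected and their barcode pairs sequenced. Read counts were normalised to the haploid input and turned into Kd by a linear fit to BCL2-family pairs of known affinity, for each replicate. Mating was done three times.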

The parent's heavy chain CDRs are GFTLNSYGIS, VIYSDGRRTFYGDSVK, GRAAGTFDS; each variant's own CDRs replace them letter for letter.
This list gathers variants with a substitution at V50 (VH, numbered from residue 1).
Each Kd is an estimate from the mating assay, the geometric mean of the replicates in which the pair was seen; lower is stronger.
"nd" marks a missing value. The strain was present, yet no cells mated with the target were sequenced in any replicate, which points to weak or no binding.
Background: pairings of library AAYL49 with three empty control strains gave a value in 15% of cases (median 11 µM, 5th percentile 680 nM). Values in that range, when seen in few replicates, are hard to tell from nonspecific mating.

Variant GFTLNSYGIS / TIYMDGRRTFYGDSFK / GRAAGTFDS showed nd (0 of 3 replicates). For GFTLNSYGIS / WIYSDGRRTFPGDSVK / GRAAQTFDS, the assay gave nd (0 of 3 replicates). Variant GFTLNSYGIS / EIYSDGRRTFYGDSVM / GRPAGTFDS gave nd (0 of 3 replicates). For GFTLNSYGIS / YIYNDGRRTFYGDSVK / GRAAGTFDS, the assay gave nd (0 of 3 replicates). For GFTLNSYKIS / FIYSDGRRTFYGDSVK / GRAAGTFDS, the assay gave nd (0 of 3 replicates). For GFILNSQGIS / EIYSDGRRTFYGDSVK / GRAAGTFDS, the assay gave nd (0 of 3 replicates). Variant GFTLNSYNIS / WIYSDGRRTFYGDSVK / GRAPGTFDS gave nd (0 of 3 replicates).

Variant GFTLNSYGIS / AIYSDGRRTFYGDSVK / GQAAGTIDS gave nd (0 of 3 replicates). Variant GFTCNSYGIS / MIYSDGRRTFYEDSVK / GRAAGTFDS gave nd (0 of 3 replicates). With GFTLNSYGIS / QIYSRGRRTFIGDSVK / GRAAGTFDS the result was 120 µM (2 of 3 replicates). Variant GFTLNSYGAS / WIYSDMRRTFYGDSVK / GRAAGTFDS gave nd (0 of 3 replicates). Variant GFTLNSYGIS / KIYSDGRRTFYGDSVD / GRAAGTFDS gave nd (0 of 3 replicates). With GVTLASYGIS / CIYSDGRRTFYGDSVK / GRAAGTFDS the result was 33 µM (2 of 3 replicates). For GFTLNSYGIS / IIYSDGRRTFYGDSVK / GMAAGNFDS, the assay gave nd (0 of 3 replicates).

With RFTLNSYGIS / AIYSDGRPTFYGDSVK / GRAAGTFDS the result was 61 µM (2 of 3 replicates). With GFTLNRYWIS / WIYSDGRRTFYGDSVK / GRAAGTFDS the result was nd (0 of 3 replicates). For GFTLNSYGIS / YIYSDGARTFYYDSVK / GRAAGTFDS, the assay gave 27 µM (1 of 3 replicates). Variant GFTLNSYGIS / PIYSDGRRTFYGDSVK / GRAAGTRDS gave nd (0 of 3 replicates). Variant GFTLNSYGIS / NIYSIGRRTFYGDSVW / GRAAGTFDS gave 31 µM (3 of 3 replicates). Variant GFTLNSYGIS / EIYSDGKRIFYGDSVK / GRAAGTFDS showed 33 µM (2 of 3 replicates). For GFTLASYGIS / IIYSDGRRTFYGDSVK / GRAAGTFDS, the assay gave 170 nM (3 of 3 replicates).

Variant GFTLNSYGIN / YIYSDGRRTFYGDSVK / GRAAGSFDS gave 8.9 µM (1 of 3 replicates). With GFTLNSYGIS / SIYSDERRTFYGDSVK / GRAAGTFDT the result was 230 µM (1 of 3 replicates). For GFTLNSYGIS / WIYSDGRRTFYGDSVK / GRAAATSDS, the assay gave 390 µM (1 of 3 replicates). For GFTLNSYGNS / WIYSDGRRTWYGDSVK / GRAAGTFDS, the assay gave 2.2 µM (1 of 3 replicates). Variant GFTLNSYGIG / FIYSDGRRTFYGDSVK / GRAAGTFVS gave 510 nM (1 of 3 replicates). Variant GFTLWSYGIS / NIYSDGRRTFYGDSVK / GRSAGTFDS gave 8.2 µM (1 of 3 replicates). Variant GFTFNSYGIS / GIYSDGRRTFYGDSVK / GRAAGTFDS gave 3.3 µM (1 of 3 replicates).

With GFTLNSYGIS / AIYSDGRRDFYGDSVK / GRAAGWFDS the result was 1.3 µM (1 of 3 replicates). Variant GFTLNSLGIS / EIYSDGRRTFYGDSVK / GRFAGTFDS showed 73 µM (1 of 3 replicates). Variant GFTLNSYGIS / IIYSDGRRTFYGDSVK / TRAAGTFKS gave 860 nM (3 of 3 replicates). For GFTYNSYGIS / AIYSDGRRTFYGDSVK / GRAAGTFDS, the assay gave 110 µM (2 of 3 replicates). Variant GNTLNSYGIS / RIYSDGRRTFYGDSQK / GRAAGTFDS showed nd (0 of 3 replicates). With GYTLNSYGIS / MIYSDGRRTFYGDSMK / GRAAGTFDS the result was nd (0 of 3 replicates). Variant GFTLNSYGIS / YIYSDGRRTFYGDSVK / GRAYGTFDW gave nd (0 of 3 replicates).

Variant GFILNSYGIS / MIYSDGRRTFYGASVK / GRAAGTFDS showed nd (0 of 3 replicates). With GFTLNSYGIK / WIYSDGRRTFYGDSVK / RRAAGTFDS the result was 8.7 µM (1 of 3 replicates). Variant GFRLNSYGIS / LIISDGRRTFYGDSVK / GRAAGTFDS showed 2.3 µM (1 of 3 replicates). With GFTLNSSGIS / PIYSDGHRTFYGDSVK / GRAAGTFDS the result was 530 µM (1 of 3 replicates). Variant GFTLNSYGIS / WIYSDGRRTFYGDSVK / PRAMGTFDS showed nd (0 of 3 replicates). With GFTLNSYAIS / TIYSDGRRTFYGDSVK / GRAAGTFDS the result was nd (0 of 3 replicates). Variant DFTLNSYGIS / DIYSDGRRTFYGDSVK / GRAAGTFDS showed 2.4 µM (1 of 3 replicates).

For GFTLNSYGIS / YIYSDGRPTFYGDSYK / GRAAGTFDS, the assay gave 1.4 mM (1 of 3 replicates). Variant GFTLNSYGIS / HIYSDGRRTLYGDSVK / GRAAITFDS gave nd (0 of 3 replicates). With GGTLNSYGIS / TIYSDGRRTFYGDSVK / GRAAGTFDS the result was 12 µM (1 of 3 replicates). Variant GFDLNSYGIS / YIYSDGRRTFYGDSVK / GRAAGTDDS showed 110 µM (2 of 3 replicates). Variant GFTLNSYGIS / FIYSDGRRRFYGDSVK / GQAAGTFDS gave nd (0 of 3 replicates). Variant GFTLNSYGIS / IIYSDGRRTFYGMSVK / GRANGTFDS gave nd (0 of 3 replicates). Variant GFTLNRYGIS / GIYSDGRRTFYGDSQK / GRAAGTFDS gave 4.2 µM (1 of 3 replicates).

With GFTLNSYGIP / LIYSDGRRTFYGDSVK / GRAAQTFDS the result was nd (0 of 3 replicates).

The 3 strongest on average among those seen in every replicate, once more:

CDR-H1	CDR-H2	CDR-H3	Kd	replicates with signal
GFTLASYGIS	IIYSDGRRTFYGDSVK	GRAAGTFDS	170 nM	3/3
GFTLNSYGIS	IIYSDGRRTFYGDSVK	TRAAGTFKS	860 nM	3/3
GFTLNSYGIS	NIYSIGRRTFYGDSVW	GRAAGTFDS	31 µM	3/3